Measurements published in patent US12091408B2, “Store overload-induced calcium release inhibitors and methods for producing and using the same” (UTI Limited Partnership, priority 2013, dated 2024).
Entries after “also recorded” stand apart in the source; their conditions may differ.

Chains of the proteins cited; added tags and fusions are not shown.
UniProt E9Q401, whole entry R4495C: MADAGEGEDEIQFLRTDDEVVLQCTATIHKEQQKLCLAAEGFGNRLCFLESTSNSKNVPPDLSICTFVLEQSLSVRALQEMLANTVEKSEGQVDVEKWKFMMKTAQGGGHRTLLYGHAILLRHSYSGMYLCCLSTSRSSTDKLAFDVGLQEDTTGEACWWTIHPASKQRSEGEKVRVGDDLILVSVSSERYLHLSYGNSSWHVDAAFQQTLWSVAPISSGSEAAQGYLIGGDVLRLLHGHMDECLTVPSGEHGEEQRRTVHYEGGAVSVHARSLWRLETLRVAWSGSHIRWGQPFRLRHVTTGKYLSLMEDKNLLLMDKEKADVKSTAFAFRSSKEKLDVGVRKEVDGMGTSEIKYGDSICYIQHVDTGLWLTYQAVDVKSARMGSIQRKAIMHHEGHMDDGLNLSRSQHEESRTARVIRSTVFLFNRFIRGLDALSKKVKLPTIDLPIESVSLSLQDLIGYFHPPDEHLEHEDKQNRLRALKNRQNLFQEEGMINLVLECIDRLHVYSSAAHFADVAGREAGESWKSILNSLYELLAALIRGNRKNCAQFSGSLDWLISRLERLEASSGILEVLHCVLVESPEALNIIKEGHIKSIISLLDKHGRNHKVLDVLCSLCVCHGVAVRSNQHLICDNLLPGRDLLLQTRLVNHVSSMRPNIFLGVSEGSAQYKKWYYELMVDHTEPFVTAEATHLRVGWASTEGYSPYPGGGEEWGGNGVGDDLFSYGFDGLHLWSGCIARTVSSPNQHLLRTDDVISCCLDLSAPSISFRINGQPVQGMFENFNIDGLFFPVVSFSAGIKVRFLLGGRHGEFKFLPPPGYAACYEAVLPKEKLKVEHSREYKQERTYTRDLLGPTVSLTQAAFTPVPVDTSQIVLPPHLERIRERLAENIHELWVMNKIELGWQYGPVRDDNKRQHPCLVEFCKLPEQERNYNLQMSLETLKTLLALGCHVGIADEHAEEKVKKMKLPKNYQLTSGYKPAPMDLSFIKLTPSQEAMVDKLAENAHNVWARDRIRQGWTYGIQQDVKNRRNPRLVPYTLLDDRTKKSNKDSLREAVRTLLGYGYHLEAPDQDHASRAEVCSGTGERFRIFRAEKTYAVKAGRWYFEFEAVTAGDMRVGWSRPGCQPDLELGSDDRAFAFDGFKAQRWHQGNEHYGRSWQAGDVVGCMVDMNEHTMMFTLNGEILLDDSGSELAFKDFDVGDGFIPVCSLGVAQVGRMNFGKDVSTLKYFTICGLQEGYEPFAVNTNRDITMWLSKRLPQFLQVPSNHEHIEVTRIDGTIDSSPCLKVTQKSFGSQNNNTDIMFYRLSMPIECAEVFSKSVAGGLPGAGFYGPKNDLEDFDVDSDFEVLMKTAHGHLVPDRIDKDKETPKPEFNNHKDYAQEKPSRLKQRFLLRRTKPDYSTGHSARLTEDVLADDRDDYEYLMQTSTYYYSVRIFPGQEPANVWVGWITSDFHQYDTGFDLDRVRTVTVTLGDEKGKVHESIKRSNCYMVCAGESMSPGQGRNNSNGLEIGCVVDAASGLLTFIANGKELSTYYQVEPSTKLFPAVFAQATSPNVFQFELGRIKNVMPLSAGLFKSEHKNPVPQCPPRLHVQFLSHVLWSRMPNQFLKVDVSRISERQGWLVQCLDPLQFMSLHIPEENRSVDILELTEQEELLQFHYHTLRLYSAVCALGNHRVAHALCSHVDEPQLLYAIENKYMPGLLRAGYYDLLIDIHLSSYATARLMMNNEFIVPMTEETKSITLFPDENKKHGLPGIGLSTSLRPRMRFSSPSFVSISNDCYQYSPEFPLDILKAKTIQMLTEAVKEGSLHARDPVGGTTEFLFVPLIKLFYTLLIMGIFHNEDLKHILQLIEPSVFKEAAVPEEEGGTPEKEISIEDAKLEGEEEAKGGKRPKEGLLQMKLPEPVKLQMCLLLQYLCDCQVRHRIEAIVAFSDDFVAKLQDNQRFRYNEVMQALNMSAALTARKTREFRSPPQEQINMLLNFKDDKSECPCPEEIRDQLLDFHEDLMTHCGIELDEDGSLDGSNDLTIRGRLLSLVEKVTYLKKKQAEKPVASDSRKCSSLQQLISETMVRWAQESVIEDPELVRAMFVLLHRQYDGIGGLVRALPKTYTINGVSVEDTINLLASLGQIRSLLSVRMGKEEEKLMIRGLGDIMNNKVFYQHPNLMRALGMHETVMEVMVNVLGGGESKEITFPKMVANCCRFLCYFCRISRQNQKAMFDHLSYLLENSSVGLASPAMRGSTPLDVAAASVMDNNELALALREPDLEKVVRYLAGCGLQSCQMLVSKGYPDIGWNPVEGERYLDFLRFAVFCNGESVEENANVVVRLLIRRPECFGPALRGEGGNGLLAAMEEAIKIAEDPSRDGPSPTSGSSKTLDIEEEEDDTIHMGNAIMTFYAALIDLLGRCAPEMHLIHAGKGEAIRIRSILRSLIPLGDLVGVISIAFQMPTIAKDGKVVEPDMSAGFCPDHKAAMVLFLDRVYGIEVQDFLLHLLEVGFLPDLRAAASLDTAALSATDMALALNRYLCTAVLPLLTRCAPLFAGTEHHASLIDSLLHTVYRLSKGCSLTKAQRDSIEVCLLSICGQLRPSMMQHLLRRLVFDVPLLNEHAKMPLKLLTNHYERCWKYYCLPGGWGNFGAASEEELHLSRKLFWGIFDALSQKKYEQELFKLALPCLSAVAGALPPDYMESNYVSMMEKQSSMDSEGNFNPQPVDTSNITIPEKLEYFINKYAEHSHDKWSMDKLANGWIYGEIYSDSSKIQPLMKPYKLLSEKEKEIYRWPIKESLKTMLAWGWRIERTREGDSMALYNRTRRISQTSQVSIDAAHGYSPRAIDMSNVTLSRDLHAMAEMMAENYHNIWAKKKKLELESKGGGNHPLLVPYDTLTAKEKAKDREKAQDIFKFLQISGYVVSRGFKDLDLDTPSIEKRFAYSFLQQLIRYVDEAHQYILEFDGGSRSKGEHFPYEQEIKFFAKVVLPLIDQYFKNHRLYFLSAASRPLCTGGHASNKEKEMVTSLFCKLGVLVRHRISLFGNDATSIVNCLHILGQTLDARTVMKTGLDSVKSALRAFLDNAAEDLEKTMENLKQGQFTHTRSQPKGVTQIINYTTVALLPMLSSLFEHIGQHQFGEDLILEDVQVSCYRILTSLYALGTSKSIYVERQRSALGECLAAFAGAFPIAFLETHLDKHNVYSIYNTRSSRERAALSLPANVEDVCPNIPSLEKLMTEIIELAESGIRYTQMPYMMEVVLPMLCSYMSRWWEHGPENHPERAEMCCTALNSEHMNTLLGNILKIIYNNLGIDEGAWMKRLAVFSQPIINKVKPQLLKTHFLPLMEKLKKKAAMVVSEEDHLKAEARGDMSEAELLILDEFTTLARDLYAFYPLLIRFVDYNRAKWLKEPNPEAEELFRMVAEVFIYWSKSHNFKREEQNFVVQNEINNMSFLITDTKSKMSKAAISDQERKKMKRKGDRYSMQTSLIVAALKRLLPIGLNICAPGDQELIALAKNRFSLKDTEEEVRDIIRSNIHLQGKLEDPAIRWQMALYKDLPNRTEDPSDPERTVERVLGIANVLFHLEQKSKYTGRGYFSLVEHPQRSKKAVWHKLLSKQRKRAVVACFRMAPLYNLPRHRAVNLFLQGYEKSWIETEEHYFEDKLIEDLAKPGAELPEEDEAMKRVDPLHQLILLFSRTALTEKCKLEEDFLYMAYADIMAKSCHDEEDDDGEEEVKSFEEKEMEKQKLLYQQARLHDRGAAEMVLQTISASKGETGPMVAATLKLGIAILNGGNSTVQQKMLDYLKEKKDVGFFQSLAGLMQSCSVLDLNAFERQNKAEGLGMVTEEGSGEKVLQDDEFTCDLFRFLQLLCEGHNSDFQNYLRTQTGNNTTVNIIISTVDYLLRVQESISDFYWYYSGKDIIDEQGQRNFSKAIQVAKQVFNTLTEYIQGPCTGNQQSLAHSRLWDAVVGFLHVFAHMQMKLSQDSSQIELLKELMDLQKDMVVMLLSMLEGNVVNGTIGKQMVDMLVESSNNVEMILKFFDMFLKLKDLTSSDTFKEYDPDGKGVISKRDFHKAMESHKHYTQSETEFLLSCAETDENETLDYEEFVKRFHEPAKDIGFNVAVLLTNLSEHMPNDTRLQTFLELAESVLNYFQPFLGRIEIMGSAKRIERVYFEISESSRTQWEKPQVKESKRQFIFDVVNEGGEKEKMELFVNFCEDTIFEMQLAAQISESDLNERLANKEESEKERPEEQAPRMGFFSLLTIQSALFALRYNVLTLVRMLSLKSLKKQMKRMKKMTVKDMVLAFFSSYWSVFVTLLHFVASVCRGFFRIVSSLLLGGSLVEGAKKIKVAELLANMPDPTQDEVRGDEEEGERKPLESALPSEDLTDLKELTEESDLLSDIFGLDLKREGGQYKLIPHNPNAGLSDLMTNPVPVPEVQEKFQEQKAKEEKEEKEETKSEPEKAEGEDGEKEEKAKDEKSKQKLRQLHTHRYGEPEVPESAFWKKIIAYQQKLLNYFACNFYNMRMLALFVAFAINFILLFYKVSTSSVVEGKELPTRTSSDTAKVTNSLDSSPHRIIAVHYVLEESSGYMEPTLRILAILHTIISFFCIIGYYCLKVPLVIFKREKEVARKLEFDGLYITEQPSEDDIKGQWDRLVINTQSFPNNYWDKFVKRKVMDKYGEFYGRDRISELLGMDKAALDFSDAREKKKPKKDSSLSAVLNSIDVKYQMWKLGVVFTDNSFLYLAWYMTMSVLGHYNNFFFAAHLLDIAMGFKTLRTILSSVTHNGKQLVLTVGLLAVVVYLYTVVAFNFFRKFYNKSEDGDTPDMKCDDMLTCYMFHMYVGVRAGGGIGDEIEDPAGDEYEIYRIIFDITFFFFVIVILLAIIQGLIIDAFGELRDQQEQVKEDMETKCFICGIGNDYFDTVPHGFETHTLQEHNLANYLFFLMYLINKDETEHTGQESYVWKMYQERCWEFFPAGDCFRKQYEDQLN

Molecular target: T1, RyR2-R4496C mutant HEK-293 cell line (Mus musculus, UniProt E9Q401, R4495C)
T1 construct: expressed in transfected cells; host or cells: HEK-293
Test: SOICR inhibition, single cell bioassay (fura 2/AM calcium fluorescence)
Assay type: cell-based
Settings: RyR2-R4496C mutant HEK293 single cell bioassay
Procedure: IC50 values were measured for each of the compounds investigated.
All compounds were tested for SOICR inhibition in the RyR2-R4496C mutant HEK293 cell line and the IC50 values.

Compound	SOICR inhibitory activity in words
COc1ccccc1OCCNCC(O)COc1ccc2[nH]c3ccccc3c2c1 (stereo not drawn) [Compound 3]	superior to carvedilol
OC(CNCCOc1ccccc1)COc1cccc2[nH]c3ccccc3c12 (stereo not drawn) [Compound 8]	without deleterious effects on SOICR inhibition
Oc1ccccc1OCCNCC(O)COc1cccc2[nH]c3ccccc3c12 (stereo not drawn) [Compound 9]	without deleterious effects on SOICR inhibition
Cc1ccccc1OCCNCC(O)COc1cccc2[nH]c3ccccc3c12 (stereo not drawn) [Compound 10]	without deleterious effects on SOICR inhibition
CSc1ccccc1OCCNCC(O)COc1cccc2[nH]c3ccccc3c12 (stereo not drawn) [Compound 11]	without deleterious effects on SOICR inhibition
COc1ccccc1SCCNCC(O)COc1cccc2[nH]c3ccccc3c12 (stereo not drawn) [Compound 12]	without deleterious effects on SOICR inhibition
COc1ccccc1CCCNCC(O)COc1cccc2[nH]c3ccccc3c12 (stereo not drawn) [Compound 13]	without deleterious effects on SOICR inhibition
OC(CNCCCc1ccccc1)COc1cccc2[nH]c3ccccc3c12 (stereo not drawn) [Compound 14]	without deleterious effects on SOICR inhibition; also recorded: roughly twice as potent as 1
COc1ccccc1OCCN1CC(COc2ccc3[nH]c4ccccc4c3c2)OCC1=O (stereo not drawn) [Compound 41]	superior to carvedilol
COc1ccccc1OCCNCC(O)CCOc1ccc2[nH]c3ccccc3c2c1 (stereo not drawn) [Compound 43]	superior to carvedilol
COc1ccccc1OCCNCCC(O)COc1ccc2[nH]c3ccccc3c2c1 (stereo not drawn) [Compound 46]	more potent product than carvedilol
COc1ccccc1OCCNCC(O)COc1cccc2ccccc12 (stereo not drawn) [Compound 68]	potent SOICR inhibitors
COc1ccccc1OCCNCC(O)CCOc1cccc2ccccc12 (stereo not drawn) [Compound 69]	potent SOICR inhibitors
COc1ccccc1OCCNCC(O)COc1ccc2[nH]c3ccc(Br)cc3c2c1Br (stereo not drawn) [Compound 97]	improved substantially; also recorded: complete absence of SOICR inhibitory activity; also recorded: measurable effect on SOICR suppression
COc1ccc2c(c1)CN(C)CCS2.Cl [Compound 100, reference compound]	neither S107, its hydrochloride salt 100, nor its isomer 101 displayed any measurable activity
COc1ccc2c(c1)N(C)CCCS2 [Compound 101, reference compound]	neither S107, its hydrochloride salt 100, nor its isomer 101 displayed any measurable activity
COc1ccc2c(c1)CN(C(=O)CCN1CCC(Cc3ccccc3)CC1)CCS2.Cl [Compound 102, JTV519, reference compound]	some SOICR inhibitory activity

Same assay, conditions: RyR2-R4496C mutant HEK293 single cell bioassay; listed as JTV519 (102)

Compound	SOICR inhibitory activity in words
COc1ccc2c(c1)CN(C(=O)CCN1CCC(Cc3ccccc3)CC1)CCS2.Cl [Compound 102, JTV519, reference compound]	measurable effect on SOICR suppression

System: β-adrenergic receptor
Test: not given
Settings: already shown; cited from earlier work

Compound	reduction of β-blockade relative to carvedilol
COc1ccccc1OCCNCC(O)CCOc1cccc2[nH]c3ccccc3c12 (stereo not drawn) [Compound 2]	about 1000 fold
COc1ccccc1OCCNCC(O)COc1ccc2[nH]c3ccccc3c2c1 (stereo not drawn) [Compound 3]	about 1000 fold
COc1ccccc1OCCNCC(O)COc1ccc2c(c1)[nH]c1ccccc12 (stereo not drawn) [Compound 4]	about 1000 fold
